The chains behind the UniProt entries cited, without tags or fusion partners. Where a name states a change or a piece, a line headed by the entry shows the natural chain unless it says otherwise.
UniProt Q9UHD2: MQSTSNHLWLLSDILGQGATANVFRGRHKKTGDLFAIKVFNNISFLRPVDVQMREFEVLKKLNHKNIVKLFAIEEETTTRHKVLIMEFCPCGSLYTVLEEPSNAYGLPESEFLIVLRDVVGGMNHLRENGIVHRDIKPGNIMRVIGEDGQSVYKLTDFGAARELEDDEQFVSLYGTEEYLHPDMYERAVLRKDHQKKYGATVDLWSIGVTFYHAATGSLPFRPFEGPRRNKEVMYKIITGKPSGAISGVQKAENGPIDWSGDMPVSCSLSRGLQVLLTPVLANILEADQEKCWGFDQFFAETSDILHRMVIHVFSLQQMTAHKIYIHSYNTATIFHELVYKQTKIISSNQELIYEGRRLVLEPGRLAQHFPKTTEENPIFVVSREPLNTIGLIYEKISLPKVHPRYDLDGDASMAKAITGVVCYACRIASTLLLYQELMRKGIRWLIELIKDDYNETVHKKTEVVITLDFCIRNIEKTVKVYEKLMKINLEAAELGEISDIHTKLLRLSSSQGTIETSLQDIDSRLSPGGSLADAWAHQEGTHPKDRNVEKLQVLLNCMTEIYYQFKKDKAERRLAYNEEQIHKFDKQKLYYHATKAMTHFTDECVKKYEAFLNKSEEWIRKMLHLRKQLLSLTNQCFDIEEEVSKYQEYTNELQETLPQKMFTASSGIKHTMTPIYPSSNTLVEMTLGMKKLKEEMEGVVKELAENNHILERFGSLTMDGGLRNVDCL
UniProt Q14164: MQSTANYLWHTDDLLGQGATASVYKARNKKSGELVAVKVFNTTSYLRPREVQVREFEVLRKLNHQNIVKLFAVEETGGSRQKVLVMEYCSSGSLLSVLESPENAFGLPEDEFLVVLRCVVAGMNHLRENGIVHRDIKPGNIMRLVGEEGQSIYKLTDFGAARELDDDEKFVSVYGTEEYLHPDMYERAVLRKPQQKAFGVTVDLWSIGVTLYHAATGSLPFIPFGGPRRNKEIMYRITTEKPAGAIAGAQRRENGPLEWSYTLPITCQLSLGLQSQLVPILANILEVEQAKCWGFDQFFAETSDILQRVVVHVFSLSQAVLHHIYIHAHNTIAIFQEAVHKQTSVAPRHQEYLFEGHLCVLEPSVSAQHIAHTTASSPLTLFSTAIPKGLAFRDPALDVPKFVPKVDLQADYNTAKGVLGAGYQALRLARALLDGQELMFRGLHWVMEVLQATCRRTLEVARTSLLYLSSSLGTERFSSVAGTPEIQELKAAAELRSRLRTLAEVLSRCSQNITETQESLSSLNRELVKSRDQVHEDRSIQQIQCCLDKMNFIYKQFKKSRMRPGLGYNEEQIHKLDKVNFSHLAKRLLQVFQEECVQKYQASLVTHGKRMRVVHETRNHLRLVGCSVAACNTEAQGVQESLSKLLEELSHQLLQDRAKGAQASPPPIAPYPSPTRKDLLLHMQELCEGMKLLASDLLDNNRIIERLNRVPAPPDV

Experiments:
[1] = molecular target: TBK1 (Homo sapiens (Human), UniProt Q9UHD2); assay: TR-FRET enzymatic assay, phosphorylation of biotinylated serine/threonine peptide substrate (TBK1); settings: read-out: TBK1-IC50; full length recombinant TBK1, 2×Km ATP (40-80 μM), 1 μM peptide, 240 minutes at 25° C.; geometric mean of minimum four determinations
[2] = molecular target: IKKε (Homo sapiens (Human), UniProt Q14164); assay: TR-FRET enzymatic assay, phosphorylation of biotinylated serine/threonine peptide substrate (IKKε); assay type: biochemical; settings: full length recombinant IKKε at 0.3 nM, 2×Km ATP (40-80 μM), 1 μM peptide, 240 minutes at 25° C.; geometric mean of minimum four determinations
From the text: Biological Assay for TBK1 and IKKε:

| IC50 [2] [µM] | Substance | IC50 [1] [µM] |
| --- | --- | --- |
| 0.047 | 5-(6-(6-aminopyrazin-2-yl)-7H-pyrrolo[2,3-d]pyrimidin-4-yl)-2-((tetrahydro-2H-pyran-4-yl)oxy)benzonitrile [Example 269] | 0.0327 |
| 0.00261 | 5-(6-(4-(4-(2,2-difluoroethyl)piperazin-1-yl)phenyl)-7H-pyrrolo[2,3-d]pyrimidin-4-yl)-2-((1-(2-hydroxyacetyl)piperidin-4-yl)oxy)benzonitrile [Example 264] | – |
| – | 5-(6-(1,4-dioxaspiro[4.5]dec-7-en-8-yl)-7H-pyrrolo[2,3-d]pyrimidin-4-yl)-2-((1-(2-hydroxyacetyl)piperidin-4-yl)oxy)benzonitrile [Example 175] | 0.00146 |

From patent publication US10259811B2, “Tank-binding kinase inhibitor compounds” (Gilead Sciences, Inc., priority 2014, dated 2019)
